This is an account of results in patent US9133180B2, “Aurora and FLT3 kinases modulators” (SAREUM LIMITED, priority 2012, dated 2015).

By UniProt entry, the sequences of proteins in these tests, tags left out. Residues count along the entry.
UniProt Q96GD4, whole entry: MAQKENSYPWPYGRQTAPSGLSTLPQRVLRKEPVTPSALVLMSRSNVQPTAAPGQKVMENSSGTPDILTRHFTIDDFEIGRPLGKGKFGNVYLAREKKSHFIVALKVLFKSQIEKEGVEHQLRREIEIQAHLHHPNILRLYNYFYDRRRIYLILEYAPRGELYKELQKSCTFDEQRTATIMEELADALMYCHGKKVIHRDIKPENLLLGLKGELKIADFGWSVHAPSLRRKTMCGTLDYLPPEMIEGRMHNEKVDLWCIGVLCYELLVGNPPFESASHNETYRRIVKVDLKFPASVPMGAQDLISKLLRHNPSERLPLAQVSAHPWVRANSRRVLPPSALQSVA
UniProt P36888, 27-993: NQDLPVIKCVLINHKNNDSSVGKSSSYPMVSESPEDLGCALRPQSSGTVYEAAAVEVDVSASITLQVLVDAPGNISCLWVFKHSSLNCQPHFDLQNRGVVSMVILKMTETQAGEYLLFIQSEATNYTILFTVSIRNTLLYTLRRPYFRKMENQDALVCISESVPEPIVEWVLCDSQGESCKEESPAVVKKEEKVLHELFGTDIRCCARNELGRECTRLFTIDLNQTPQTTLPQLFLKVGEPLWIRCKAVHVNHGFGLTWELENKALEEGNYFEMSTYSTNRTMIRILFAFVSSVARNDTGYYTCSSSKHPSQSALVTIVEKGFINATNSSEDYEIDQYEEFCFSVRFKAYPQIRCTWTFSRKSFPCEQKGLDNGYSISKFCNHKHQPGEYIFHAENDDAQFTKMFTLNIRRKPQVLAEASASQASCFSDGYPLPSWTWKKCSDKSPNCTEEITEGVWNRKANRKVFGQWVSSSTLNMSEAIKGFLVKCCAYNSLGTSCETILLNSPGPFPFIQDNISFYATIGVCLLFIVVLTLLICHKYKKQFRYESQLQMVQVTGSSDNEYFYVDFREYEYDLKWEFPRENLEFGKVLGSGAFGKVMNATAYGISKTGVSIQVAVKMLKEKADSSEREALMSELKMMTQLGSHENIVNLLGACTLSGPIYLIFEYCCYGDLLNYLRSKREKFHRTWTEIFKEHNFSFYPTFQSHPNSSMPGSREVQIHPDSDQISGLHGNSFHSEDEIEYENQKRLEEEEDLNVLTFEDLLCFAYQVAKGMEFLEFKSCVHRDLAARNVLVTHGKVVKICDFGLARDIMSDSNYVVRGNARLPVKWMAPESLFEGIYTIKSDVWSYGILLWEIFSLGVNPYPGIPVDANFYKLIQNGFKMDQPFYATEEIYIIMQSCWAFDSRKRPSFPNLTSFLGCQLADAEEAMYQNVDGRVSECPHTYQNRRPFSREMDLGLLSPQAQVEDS

The subject of one assay is RPMI8226. Description: CellTiter-Blue assay, haematological cell line. The class given is cell-based. As to conditions: Homo sapiens, RPMI-8226, 96 h; RPMI8226 (MM), four days treatment. How it is done: The compounds of Examples 2 and 7 were tested against a range of human haematological cell lines using the CellTiter-Blue® assay (#G8081, Promega) according to the manufacturer's instructions. Cells were harvested from exponential phase cultures, counted and plated in 96 well flat-bottom microtiter plates at a cell density of 20,000-90,000 cells/well. After a 24 h recovery period to allow the cells to resume exponential growth, 10 μl of culture medium (four control wells/plate) or of culture medium with test compound were added. The compounds were applied in duplicates at ten concentrations and treatment continued for four days. After treatment of cells, 10 μl/well CellTiter-Blue® reagent was added. Following an incubation period of up to four hours, fluorescence (FU) was measured by using the EnVision Xcite multilabel reader (excitation λ=531 nm, emission λ=615 nm). The compounds were tested in two to four independent experiments for each cell line.
On the technique in general: The colour change of resazurin is a common sign of viable cells or microbes.

The target of the next assay is Aurora B kinase (Homo sapiens (Human), UniProt Q96GD4). Put plainly: Aurora B kinase 33P-ATP filter assay (Reaction Biology Corp.). The class given is biochemical. How it is done:
(§1) The ability of the compounds of the invention to inhibit FLT3 kinase and Aurora A and Aurora B kinases was determined using the assays described below.
(§2) Kinase assays were performed at Reaction Biology Corp., Malvern, Pa., USA, using the following general procedure:
(§3) 1) Prepare indicated substrate in freshly prepared Base Reaction Buffer (20 mM Hepes pH 7.5, 10 mM MgCl2, 1 mM EGTA, 0.02% Brij35, 0.02 mg/ml BSA, 0.1 mM Na3VO4, 2 mM DTT, 1% DMSO).
(§4) 2) Deliver cofactors (1.5 mM CaCl2, 16 ug/mL Calmodulin, 2 mM MnCl2) to the substrate solution above.
(§5) 3) Deliver indicated kinase into the substrate solution and gently mix
(§6) 4) Deliver varying concentrations of test compound in DMSO into the kinase reaction mixture.
(§7) 5) Deliver ^33P-ATP (specific activity 0.01 µCi/µL final) into the reaction mixture to initiate the reaction.
(§8) 6) Incubate kinase reaction for 120 min at room temperature.
(§9) 7) Reactions are spotted onto P81 ion exchange filter paper (Whatman #3698-915)
(§10) 8) Unbound phosphate is removed by washing filters extensively in 0.75% phosphoric acid.
(§11) 9) ^33P signal was determined using Typhoon phosphorimagers (GE Healthcare).
(§12) Substrates: Kemptide=[H-LRRASLG] Abltide=[[…]]
(§13) For comparison purposes, the IC50 values for the compound 2-(1H-Indol-4-yl)-5-(4-piperazin-1-yl-phenyl)-oxazole-4-carboxylic acid amide disclosed in Example M-12 of WO2008/139161 are also shown.

For another assay, the target named is FLT3 kinase (Homo sapiens (Human), UniProt P36888). Put plainly: FLT3 kinase 33P-ATP filter assay (Reaction Biology Corp.). The format is biochemical. How it is done:
as §1, §2, §3, §4, §5, §6, §7, §8, §9, §10, §11, §12, §13

For the molecule `Cc1cc(F)c2[nH]ccc2c1-c1nc(C(N)=O)c(-c2ccc(N3CCNC(C)(C)C3)cc2)o1` [Example 7, 2-(5-Methyl-7-Fluoro-1H-Indol-4-yl)-5-[4-(3,3-dimethyl-piperazin-1-yl)-phenyl]-oxazole-4-carboxylic acid amide], the IC50 (commonly the concentration that inhibits the measured activity by half) with RPMI8226 is 1300 nM; against Aurora B kinase it was 5.93 nM.

For the molecule `CC1(C)CN(c2ccc(-c3oc(-c4cccc5[nH]ccc45)nc3C(N)=O)cc2)CCN1` [Example 11, 2-(1H-Indol-4-yl)-5-[4-(3,3-dimethyl-piperazin-1-yl)-phenyl]-oxazole-4-carboxylic acid amide], the IC50 against FLT3 kinase worked out at 1.54 nM.
